From US20260258032A1, “TYROSINE KINASE 2 INHIBITORS AND USES THEREOF” (BIOGEN MA INC., priority 2022, published 2026)

Sequences of proteins named here, by UniProt entry; tags and fusion partners are left off. Residues count along the entry.
UniProt P29597, 575-876 limits assumed: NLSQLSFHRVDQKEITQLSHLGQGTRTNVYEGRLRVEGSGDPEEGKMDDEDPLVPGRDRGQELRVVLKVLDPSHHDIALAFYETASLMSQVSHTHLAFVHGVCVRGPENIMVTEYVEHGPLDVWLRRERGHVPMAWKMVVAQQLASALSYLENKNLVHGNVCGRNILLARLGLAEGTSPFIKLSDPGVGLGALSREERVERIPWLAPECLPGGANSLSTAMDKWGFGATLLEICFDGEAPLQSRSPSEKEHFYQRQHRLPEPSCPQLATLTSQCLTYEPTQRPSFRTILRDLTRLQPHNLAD

How the values were obtained:
[1] = tested on: Tyk2 kinase activity on STAT4; assay: pSTAT4 cell assay (MSD, NK92 cells); settings: read-out: TYK2, compounds 1 hr, stimulated 15 minutes
Description: The inhibitory potency of compounds of the disclosure against the Tyk2 kinase activity on STAT4 was evaluated using an MSD-platform plate-based assay format. NK92 cells natively expressing STAT4 and Tyk2 were serum-starved to reduce background phosphorylation levels, then cells were treated compounds for 1 hr with a 10-point four-fold dilution series starting at 10 μM. Cells were then stimulated with 30 ng/mL IL2 for 15 minutes. Cells were lysed and […] levels were quantitated using an MSD plate-based assay with anti-STAT4 antibodies. The data were normalized and the percent activity versus log concentration of compound were fitted with a 4-parameter logistic model to generate to generate IC50 curves.

JH2 domain of human Tyk2 = JH2 domain of human Tyk2 (Homo sapiens, UniProt P29597); assay: JH2 biochemical assay (TR-FRET probe displacement); settings: read-out: TYK2-JH2 IC50
Description: The inhibitory potency of compounds of the disclosure against the kinase activity of recombinantly generated JH2 domain of human Tyk2 was evaluated in a plate-based assay using a TR-FRET assay platform. Briefly, 2 nM of recombinant JH2 domain [10×His-tagged TYK2 JH2 domain (amino acid 575-876)] was combined with 2 nM probe ((S)-6-amino-9-(2-carboxy-4-((1-(3-(8-methyl-5-(methylamino)-8H-imidazo[4,5-d]thiazolo[5,4-b]pyridin-2-yl)phenyl)ethyl)carbamoyl)phenyl)-3-iminio-5-sulfo-3H-xanthene-4-sulfonate), 0.1 nM Tb-labeled anti-His antibody, and compounds of disclosure for 60 minutes. Compounds are tested at either […] top concentration, 10 points of 3-fold dilution. The TR-FRET signal […] by compounds and signal was calculated by taking the ratio of fluorescence at 520 nm and 495 nm. The data was normalized and the percent activity versus log concentration of compound was fitted with a 4-parameter logistic model to generate IC50 curves.

Work on CC(=O)Nc1cc2c(cn1)C1(CC1)CN2c1cc(C2COC2)nc(C(C)(F)F)n1 yielded a pIC50 [1] of 6.00 to 7.00 and a pIC50 (JH2 domain of human Tyk2) of over 8.00.
In the case of CC(=O)Nc1cc2c(cn1)C1(CC1)CN2c1cc(C)nc(C2CCC2)n1, the pIC50 [1] was 6.00 to 7.00 and the pIC50 (JH2 domain of human Tyk2) was over 8.00.
With CC(=O)Nc1cc2c(cn1)C1(CC1)CN2c1cc(C)nc(C2CCC(F)(F)C2)n1 (centres unmarked) the pIC50 [1] was 6.00 to 7.00 and the pIC50 (JH2 domain of human Tyk2) was over 8.00.
Compound COc1nc(C)cc(N2CC3(CC3)c3cnc(NC(C)=O)cc32)n1 has a pIC50 [1] of under 6.00 and a pIC50 (JH2 domain of human Tyk2) of 7.00 to 8.00.
Work on CNc1cc(N2CCc3cnc(NC(C)=O)cc32)nc(C(C)(F)F)n1 yielded a pIC50 [1] of under 6.00 and a pIC50 (JH2 domain of human Tyk2) of 7.00 to 8.00.
In the case of CC(=O)Nc1cc2c(cn1)CCN2c1nccc(C(C)(F)F)n1, the pIC50 (JH2 domain of human Tyk2) was 6.00 to 7.00.

pIC50: −log10 of the molar value.
